Reference: patent publication US8835436B2 (priority 2009, dated 2014)

By UniProt entry, the sequences of proteins in these tests, tags left out. Where a name states a change or a piece, a line headed by the entry shows the natural chain unless it says otherwise.
UniProt P28335: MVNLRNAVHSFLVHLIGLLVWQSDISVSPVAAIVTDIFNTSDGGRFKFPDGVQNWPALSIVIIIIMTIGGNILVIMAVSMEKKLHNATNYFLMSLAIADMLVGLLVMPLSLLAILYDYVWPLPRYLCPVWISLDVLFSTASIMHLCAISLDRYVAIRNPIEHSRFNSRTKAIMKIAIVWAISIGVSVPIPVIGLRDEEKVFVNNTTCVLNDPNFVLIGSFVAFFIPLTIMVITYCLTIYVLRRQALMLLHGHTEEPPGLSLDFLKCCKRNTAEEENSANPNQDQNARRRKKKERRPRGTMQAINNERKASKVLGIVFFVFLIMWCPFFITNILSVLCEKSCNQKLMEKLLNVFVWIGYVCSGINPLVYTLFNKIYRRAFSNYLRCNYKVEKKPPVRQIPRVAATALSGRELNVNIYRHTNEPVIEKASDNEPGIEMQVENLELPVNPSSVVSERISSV

Target: human recombinant 5-HT2C receptor (Homo sapiens (Human), UniProt P28335)
Details: read-out: Binding affinity to serotonin receptor 5-HT2C: IC50

Row | SMILES | pIC50
1 | COc1ccccc1-n1c(C)nc(C(=O)NCCCN2CCN(c3cccc(C)c3C)CC2)c1C [Example 99, N-(3-(4-(2,3-dimethylphenyl)piperazin-1-yl)propyl)-1-(2-methoxyphenyl)-2,5-dimethyl-1H-imidazole-4-carboxamide dihydrochloride] | 6.84
2 | Cc1c(Cl)cccc1N1CCN(C[C@@H](O)CNC(=O)c2nc(-c3ccccc3)n(-c3ccc(F)cc3)c2C)CC1 [Example 142, (S)—N-(3-(4-(3-chloro-2-methylphenyl)piperazin-1-yl)-2-hydroxypropyl)-1-(4-fluorophenyl)-5-methyl-2-phenyl-1H-imidazole-4-carboxamide dihydrochloride] | 6.27

pIC50: −log10 of the molar value. Structures can show the parent of a compound that is named as a salt.
